{"source": "patent US20040018487A1", "biological_target": "HPV 16 E6 C-terminal PL peptide (TQL), biotinylated (HPV 16)", "assay": "G assay, HPV16 E6 PL peptide titrated against a constant amount of GST-PDZ"}
{"substance": "GST-PSD95 PDZ domains 1-3 (from UniProt P78352 61-402)", "values": [{"measurement": "EC50", "result": 1, "unit": "µM"}]}
